Source: patent US11919883B2, “Metalloenzyme inhibitor compounds” (Ji Xing Pharmaceuticals Hong Kong Limited, priority 2016, dated 2024)

Chains of the proteins cited; added tags and fusions are not shown. Residues count along the entry.
UniProt P19099, 25-503 limits assumed: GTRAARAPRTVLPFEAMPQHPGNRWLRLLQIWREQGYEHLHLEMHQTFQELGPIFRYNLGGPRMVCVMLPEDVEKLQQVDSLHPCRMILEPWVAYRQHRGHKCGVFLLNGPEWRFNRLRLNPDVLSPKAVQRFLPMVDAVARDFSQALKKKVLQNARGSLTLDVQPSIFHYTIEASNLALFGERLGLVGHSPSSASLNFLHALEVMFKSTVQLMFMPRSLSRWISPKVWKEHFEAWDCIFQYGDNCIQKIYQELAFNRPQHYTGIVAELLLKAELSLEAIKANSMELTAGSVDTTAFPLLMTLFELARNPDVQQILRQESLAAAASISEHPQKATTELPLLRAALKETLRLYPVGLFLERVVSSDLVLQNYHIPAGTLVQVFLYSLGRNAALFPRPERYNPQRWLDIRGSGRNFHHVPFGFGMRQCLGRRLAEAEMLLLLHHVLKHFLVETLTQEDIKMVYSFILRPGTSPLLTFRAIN
UniProt P15538, 25-503 limits assumed: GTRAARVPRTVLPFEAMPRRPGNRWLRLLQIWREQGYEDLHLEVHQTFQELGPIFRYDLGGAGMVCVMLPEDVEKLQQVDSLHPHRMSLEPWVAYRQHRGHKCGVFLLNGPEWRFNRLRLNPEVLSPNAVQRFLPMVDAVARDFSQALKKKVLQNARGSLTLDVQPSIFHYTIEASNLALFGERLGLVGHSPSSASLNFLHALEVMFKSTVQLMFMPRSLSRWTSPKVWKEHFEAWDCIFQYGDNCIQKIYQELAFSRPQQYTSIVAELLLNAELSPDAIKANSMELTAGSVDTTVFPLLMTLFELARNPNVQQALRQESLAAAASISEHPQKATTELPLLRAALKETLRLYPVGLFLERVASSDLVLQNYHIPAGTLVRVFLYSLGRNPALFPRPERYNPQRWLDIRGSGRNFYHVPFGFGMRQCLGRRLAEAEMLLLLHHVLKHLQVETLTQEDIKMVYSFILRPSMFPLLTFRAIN

Columns and labels:
[1] = target: recombinant human CYP11B2 (Homo sapiens, UniProt P19099); assay: CYP11B2 enzyme assay, enzyme enriched microsomes from V79-4 cells, aldosterone by LC-MS; format: biochemical; settings: for Selectivity: CYP11B1 IC50/CYP11B2 IC50
[2] = target: recombinant human CYP11B1 (Homo sapiens, UniProt P15538); assay: CYP11B1 enzyme assay, enzyme enriched microsomes from V79-4 cells, cortisol by LC-MS; format: biochemical; settings: for inhibition of CYP11B1 / selectivity for CYP11B2 over CYP11B1: pyridine replacing the pyrimidine of compounds of Formula I
[3] = Cyno liver microsome stability; format: in vitro ADME, cynomolgus monkey; settings: % Compound remaining at 65 min in cyno liver microsomes
[4] = Rat liver microsome stability; format: in vitro ADME; settings: % Compound remaining at 65 min in rat liver microsomes
[5] = read-out: CYP11B2 IC50, Table 3 comparison
[6] = read-out: CYP11B1 IC50, Table 3 comparison

SMILES	Selectivity [1]	IC50 [1, 5]	inhibition of CYP11B1 / selectivity for CYP11B2 over CYP11B1 [2]	IC50 [2, 6]	Cyno LM Stability [3]	Rat LM Stability [4]	IC50 ([1]; read-out: hCYP11B2 IC50, IC50 ranges, run at Km of 11-deoxycorticosterone)	IC50 ([2]; read-out: hCYP11B1 IC50, IC50 ranges, run at Km of 11-deoxycortisol)
Fc1ccc2nc(-c3cccnc3)n(C3CC3)c2c1	192	5 nM	increased inhibition of CYP11B1 and/or a significant loss of selectivity for CYP11B2 over CYP11B1	858 nM	1%	12%		
Fc1cc2nc(-c3cncnc3)n(C3CC3)c2cc1Cl							1 to 100 nM	1000 to 10000 nM
Fc1cc2nc(-c3cnccc3C(F)(F)F)n(C3CC3)c2cc1F	115	36 nM	increased inhibition of CYP11B1 and/or a significant loss of selectivity for CYP11B2 over CYP11B1	4120 nM	58%	52%		
Cc1ccncc1-c1nc2cc(F)c(F)cc2n1C1CC1					25%	22%		

Like-named read-outs stand apart in the source and are kept apart here.
